Reference: ChEMBL document CHEMBL1125016

Chains of the proteins cited; added tags and fusions are not shown.
UniProt P41144, whole entry: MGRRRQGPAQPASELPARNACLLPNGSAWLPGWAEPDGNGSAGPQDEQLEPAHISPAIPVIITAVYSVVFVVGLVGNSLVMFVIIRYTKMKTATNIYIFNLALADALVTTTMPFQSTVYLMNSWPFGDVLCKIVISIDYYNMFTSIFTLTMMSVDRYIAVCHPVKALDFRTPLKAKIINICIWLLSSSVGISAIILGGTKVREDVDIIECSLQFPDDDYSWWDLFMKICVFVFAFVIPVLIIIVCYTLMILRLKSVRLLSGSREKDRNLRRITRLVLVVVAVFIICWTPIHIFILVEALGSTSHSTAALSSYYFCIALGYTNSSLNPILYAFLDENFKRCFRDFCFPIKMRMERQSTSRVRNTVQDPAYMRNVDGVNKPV

How the values were obtained:
[1] = target: Kappa-type opioid receptor (Cavia porcellus) (UniProt P41144); assay: Binding affinity against opioid receptor kappa 1 using [3H]U-69593 as a radioligand
[2] = target: Kappa-type opioid receptor (Cavia porcellus) (UniProt P41144); assay: Binding affinity against opioid receptor kappa 1 using with [3H]bremazocine as radioligand

With CN(C(=O)CCCOc1ccc(Cl)cc1Cl)[C@H]1CCCC[C@H]1N1CCCC1 the Control [1] was 43.4% and the Control [2] was 88.2%.

Work on CN(C(=O)COc1ccc(Cl)c(Cl)c1)[C@@H]1CCCC[C@@H]1N1CCCC1 yielded a Control [1] of 9.53% and a Control [2] of 64.7%.

With CN(C(=O)COc1cc(Cl)c(Cl)cc1Cl)[C@@H]1CCCC[C@@H]1N1CCCC1 the Control [1] was 6.94% and the Control [2] was 45.6%.

CN(C(=O)C1(c2ccccc2)CC1)[C@H]1CCCC[C@H]1N1CCCC1 was tested, and the Control [1] was 86.3% and the Control [2] was 107%.

CN(C(=O)COc1ccc(Cl)cc1Cl)[C@@H]1CCCC[C@@H]1N1CCCC1 showed a Control [1] of 35.2% and a Control [2] of 95.8%.

COc1cc(CC(=O)N(C)[C@@H]2CCCC[C@@H]2N2CCCC2)cc(OC)c1OC was tested, and the Control [1] was 75.8% and the Control [2] was 107%.

In the case of COc1ccccc1CC(=O)N(C)[C@@H]1CCCC[C@@H]1N1CCCC1, the Control [1] is reported as 71.2% and the Control [2] is reported as 110%.

Compound COc1cccc(CC(=O)N(C)[C@@H]2CCCC[C@@H]2N2CCCC2)c1 has a Control [1] of 65% and a Control [2] of 107%.
